Results: US20140100184A1, “SELECTIVE INHIBITORS OF HISTONE […] DOT1L” (BAYLOR COLLEGE OF MEDICINE, priority 2012, published 2014)
Structures can show the parent of a compound that is named as a salt.

Protein sequences, listed by entry. Tags and fused reporters are not part of them.
UniProt Q99873, whole entry: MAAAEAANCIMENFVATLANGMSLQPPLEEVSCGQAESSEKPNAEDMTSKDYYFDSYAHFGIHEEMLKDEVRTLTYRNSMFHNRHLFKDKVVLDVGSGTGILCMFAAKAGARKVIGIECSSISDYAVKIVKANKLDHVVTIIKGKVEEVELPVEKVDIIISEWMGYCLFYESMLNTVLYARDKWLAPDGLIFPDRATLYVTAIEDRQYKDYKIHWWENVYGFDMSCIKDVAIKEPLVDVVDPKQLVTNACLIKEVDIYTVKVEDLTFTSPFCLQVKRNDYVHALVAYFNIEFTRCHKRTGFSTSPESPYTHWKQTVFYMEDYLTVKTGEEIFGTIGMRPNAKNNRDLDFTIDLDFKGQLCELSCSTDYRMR

Target: PRMT1 (Homo sapiens, UniProt Q99873)
Test: Methyltransferase inhibition assay, PRMT1
Assay type: biochemical
Set-up: purchased BPS Biosciences (San Diego, Calif.)

| SMILES | IC50 [µM] |
| --- | --- |
| Nc1ncnc2c1ncn2[C@@H]1O[C@H](CN(CCI)CC[C@H](N)C(=O)O)C(O)[C@@H]1O (stereo partly drawn) [Compound 3, N^γ-(5′-Adenosyl)-N^γ-(2-iodoethyl)-(S)-2,4-diaminobutyric acid hydrochloride] | 22 |
| CNc1ncnc2c1ncn2[C@@H]1O[C@H](CN(CCI)CCC[C@H](N)C(=O)O)C(O)[C@@H]1O (stereo partly drawn) [Compound 5, N^δ-[5′-(N^6-Methyl-adenosyl)]-N^δ-(2-iodoethyl)-(S)-2,5-diaminopentanoic acid hydrochloride] | > 100 |
